Experimental data reported in US10213409B2, “Substituted benzofurans, benzothiophenes, benzoselenophenes and indoles and their use as tubulin polymerisation inhibitors” (Bionomics Limited, priority 2006, dated 2019).
Some compounds may have been tested in ways that are not shown here.

System: Human umbilical vein endothelial cells (HUVECs), tumour type activated (Tum)
Experiment: Proliferation Assay - Activated Endothelium (MTT)
Assay type: cell-based
Conditions: comparison of activated and quiescent HUVEC assays, FIGS. 1 and 2, Table 1

combretastatin A4
potency towards activated (tumour) versus quiescent (normal) endothelial cells: equally potent
